## Binding of CDR-mutated scFvs to a peptide of the spike HR2 region

Values reported by Engelhart et al. 2022, doi:10.1038/s41597-022-01779-4 (FLAb copy).

Binding partner: SARS-CoV-2 spike HR2 peptide, sequence PDVDLGDISGINAS.

Each scFv is VH, a (GGGGS)3 linker, VL, as in the parent Ab-95, and differs from it in the CDRs of the light chain only.
VH: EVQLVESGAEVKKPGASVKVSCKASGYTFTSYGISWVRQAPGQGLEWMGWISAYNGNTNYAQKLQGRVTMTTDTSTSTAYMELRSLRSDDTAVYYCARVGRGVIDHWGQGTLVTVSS
VL: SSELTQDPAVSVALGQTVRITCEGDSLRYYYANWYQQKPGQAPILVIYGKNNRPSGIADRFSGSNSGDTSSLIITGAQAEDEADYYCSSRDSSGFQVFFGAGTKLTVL

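Phage display of a naive human antibody library on the peptide gave the parent. Variants in AAYL52 differ from the parent at up to three CDR positions; double and triple changes were sampled at random. Affinity was read by AlphaSeq, a pooled yeast mating assay with surface-displayed partners. Pairs that bind mate more often; barcode pairs of the diploids are counted by sequencing. Read counts were normalised to the haploid input and turned into Kd by a linear fit to BCL2-family pairs of known affinity, for each replicate. There are three technical replicates.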

Substitutions are numbered in sequence along the VL above, starting at 1 (not Kabat).
The read-out is the apparent dissociation constant on a log10 scale (nM): the lower, the stronger.
Replicates are averaged; those with no signal do not enter the mean.
"no signal" means that the variant was in the library but no mating with the target was seen in any replicate; the authors take this as a sign of poor binding, and no number exists.

"log10 Kd (nM), mean",seen in,changes
1.57,3/3,N52M S55D D91S
4.53,3/3,Y29E K50C S93R
3.35,2/3,P54V S93F V97D
4.39,3/3,L27Q R28I G94S
4.93,1/3,N51K S89Y Q96W
3.76,2/3,A32C P54G R90C
3.36,1/3,S26V G49A S55V
3.24,1/3,L27Y R90T F98A
3.23,3/3,G24A N52R S89C
3.87,2/3,Y31I N33R D91N
3.94,2/3,Y31C V97S F98P
4.37,2/3,D25G P54Y Q96K
2.03,3/3,E23M Y30E S93P
4.16,2/3,R28S N33T S55Y
2.71,3/3,D25H V97H
4.54,2/3,G24I D25N A32M
2.80,3/3,K50S N51G G94N
3.01,3/3,N33F K50I N52D
no signal,0/3,N51K S89L D91L
4.24,2/3,G49F N51Y
4.36,3/3,S26W S93C F98S
3.06,3/3,E23N S88W D91K
3.17,2/3,A32D P54L Q96G
2.73,3/3,E23Q F95C V97D
4.26,1/3,N33D G49A S88P
2.07,3/3,E23C Y31G S88C
4.42,1/3,G24Q D25Y S88V
no signal,0/3,S26K Y30I S93I
4.26,2/3,S26W G49Y P54I
3.07,2/3,L27R Y31R N52F
3.32,1/3,S26A N33D F95G
no signal,0/3,A32I N33F P54L
no signal,0/3,S26V Y30E G49P
3.79,2/3,Y31S N52A D91K
1.85,3/3,Y30R R90G G94I
no signal,0/3,K50W N52Y F98Y
4.20,3/3,G49I N52C S92D
4.41,3/3,Y30M R53Y V97N
2.91,2/3,G49Y R90L S93C
2.26,3/3,D25H R90N F95T
3.11,3/3,L27V K50D G94S
3.94,1/3,S93M F95M Q96C
2.75,3/3,S93C G94Y F98C
4.55,1/3,G49P R53N S89N
3.70,1/3,S55V S89G D91W
3.62,3/3,L27V N51V P54K
1.65,3/3,Y30S P54F R90M
1.67,3/3,R90C F95G
4.02,2/3,A32H N51D S89D
2.83,3/3,Y31K S89Y Q96R

The closing 4 entries, repeated:

changes,"log10 Kd (nM), mean",seen in
Y30S P54F R90M,1.65,3/3
R90C F95G,1.67,3/3
A32H N51D S89D,4.02,2/3
Y31K S89Y Q96R,2.83,3/3

As a blank, each scFv also met three strains without target: over library AAYL52, 28% of these pairings were detected, typically at 3.91 and seldom below 2.90.
In this assay the parent's reference entry averaged 2.31; its copy inside this library read 2.25.